Test results as given in PMC4159583, “Evaluation of the Interaction between Phosphohistidine Analogues and Phosphotyrosine Binding Domains” (Chembiochem, 2014).

Target: T1, phosphotyrosine-containing peptide with an N-terminal fluorescein, 17
T1 chain: SYVNVQ
Assay: fluorescence polarisation; fluorescence anisotropy; fluorescein peptide 17 titrated with purified His6-(Grb2-SH2)
Settings: remark: other sources report otherwise

B1: monomeric His6-(Grb2-SH2), P62993 60-152 (domain or fragment)
chain: WFFGKIPRAKAEEMLSKQRHDGAFLIRESESAPGDFSLSVKFGNDVQHFKVLRDGAGKYFLWVVKFNSLNELVDYHRSTSVSRNQQIFLRDIE
modifications: here or on the partner: phosphotyrosine; fluorescein on the N-terminus
B1 was tested, and the Kd was 283 nM.
